Reference: ChEMBL document CHEMBL2311449, “Synthesis and evaluation of diphenylphosphinic amides and diphenylphosphine oxides as inhibitors of Kv1.5” (Bioorg Med Chem Lett, 2013)

The chains behind the UniProt entries cited, without tags or fusion partners. Where a name states a change or a piece, a line headed by the entry shows the natural chain unless it says otherwise.
UniProt O15554, whole entry, looked up: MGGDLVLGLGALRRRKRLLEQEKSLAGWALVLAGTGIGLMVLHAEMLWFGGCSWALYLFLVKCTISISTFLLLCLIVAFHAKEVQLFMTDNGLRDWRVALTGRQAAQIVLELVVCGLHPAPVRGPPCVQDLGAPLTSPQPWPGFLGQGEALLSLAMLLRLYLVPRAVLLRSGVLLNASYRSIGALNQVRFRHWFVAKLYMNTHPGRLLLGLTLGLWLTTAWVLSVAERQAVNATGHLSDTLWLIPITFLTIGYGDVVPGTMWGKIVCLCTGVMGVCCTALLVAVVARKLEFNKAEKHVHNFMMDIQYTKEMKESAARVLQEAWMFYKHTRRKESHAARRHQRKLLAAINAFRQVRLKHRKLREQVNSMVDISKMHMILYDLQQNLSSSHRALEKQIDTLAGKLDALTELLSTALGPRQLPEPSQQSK
UniProt P22460, whole entry, looked up: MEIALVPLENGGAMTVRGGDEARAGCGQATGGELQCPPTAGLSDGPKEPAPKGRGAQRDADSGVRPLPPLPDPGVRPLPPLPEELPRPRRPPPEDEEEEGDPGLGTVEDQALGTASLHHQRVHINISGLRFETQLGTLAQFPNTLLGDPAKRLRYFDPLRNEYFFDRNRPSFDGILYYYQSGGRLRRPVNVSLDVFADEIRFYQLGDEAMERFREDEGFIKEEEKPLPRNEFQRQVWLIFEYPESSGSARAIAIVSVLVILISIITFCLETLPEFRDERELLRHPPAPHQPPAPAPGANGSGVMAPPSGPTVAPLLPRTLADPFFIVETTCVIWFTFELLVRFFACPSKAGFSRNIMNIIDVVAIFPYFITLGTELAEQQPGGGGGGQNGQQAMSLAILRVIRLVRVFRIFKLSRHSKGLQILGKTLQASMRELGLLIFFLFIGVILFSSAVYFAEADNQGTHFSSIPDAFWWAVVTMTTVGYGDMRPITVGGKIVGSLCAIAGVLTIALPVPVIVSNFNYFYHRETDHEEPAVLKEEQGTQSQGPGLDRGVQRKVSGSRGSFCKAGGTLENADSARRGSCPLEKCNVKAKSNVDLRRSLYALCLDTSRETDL
UniProt Q12809: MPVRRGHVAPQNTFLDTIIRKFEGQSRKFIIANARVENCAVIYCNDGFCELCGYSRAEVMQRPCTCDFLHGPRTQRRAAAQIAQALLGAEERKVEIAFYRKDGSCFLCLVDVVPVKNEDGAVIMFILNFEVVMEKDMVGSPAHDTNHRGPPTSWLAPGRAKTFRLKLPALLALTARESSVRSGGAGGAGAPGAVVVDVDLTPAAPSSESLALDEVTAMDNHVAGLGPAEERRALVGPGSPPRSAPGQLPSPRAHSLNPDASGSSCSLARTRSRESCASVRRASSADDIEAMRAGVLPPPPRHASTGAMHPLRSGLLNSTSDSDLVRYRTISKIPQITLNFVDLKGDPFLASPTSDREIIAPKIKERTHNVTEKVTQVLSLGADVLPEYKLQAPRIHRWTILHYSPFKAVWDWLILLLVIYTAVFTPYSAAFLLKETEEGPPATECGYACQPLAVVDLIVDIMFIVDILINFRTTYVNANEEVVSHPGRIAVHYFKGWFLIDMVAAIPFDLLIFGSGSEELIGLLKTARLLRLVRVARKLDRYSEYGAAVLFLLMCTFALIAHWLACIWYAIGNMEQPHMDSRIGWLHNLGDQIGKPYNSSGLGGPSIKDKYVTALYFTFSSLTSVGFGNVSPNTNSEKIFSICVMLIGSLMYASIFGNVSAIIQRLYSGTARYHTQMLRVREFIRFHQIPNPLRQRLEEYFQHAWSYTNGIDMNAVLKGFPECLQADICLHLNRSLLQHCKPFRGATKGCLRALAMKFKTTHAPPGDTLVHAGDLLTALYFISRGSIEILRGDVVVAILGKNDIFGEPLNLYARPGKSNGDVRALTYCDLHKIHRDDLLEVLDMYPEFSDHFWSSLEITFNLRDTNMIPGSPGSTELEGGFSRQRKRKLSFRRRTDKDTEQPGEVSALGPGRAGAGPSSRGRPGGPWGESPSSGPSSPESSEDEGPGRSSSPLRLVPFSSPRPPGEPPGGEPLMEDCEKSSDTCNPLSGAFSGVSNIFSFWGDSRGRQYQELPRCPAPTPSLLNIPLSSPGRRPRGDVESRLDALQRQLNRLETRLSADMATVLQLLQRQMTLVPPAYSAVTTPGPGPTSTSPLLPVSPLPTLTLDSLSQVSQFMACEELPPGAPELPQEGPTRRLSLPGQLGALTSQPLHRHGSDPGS

How the values were obtained:
[1] = molecular target: Intermediate conductance calcium-activated potassium channel protein 4 (Homo sapiens, UniProt O15554)
[2] = molecular target: Potassium voltage-gated channel subfamily A member 5 (Homo sapiens, UniProt P22460); conditions: cho
[3] = molecular target: Voltage-gated inwardly rectifying potassium channel KCNH2 (Homo sapiens, UniProt Q12809)

For `CCCN(c1ccon1)P(=O)(c1ccccc1)c1ccccc1`, the IC50 [1] was 18 µM, the IC50 [2] was 0.59 µM and the IC50 [3] was > 33 µM.
